72 molecules from PubChem BioAssay AID1259398 (Fisher Drug Discovery Resource Center, 2018) can be followed below.

The chains behind the UniProt entries cited, without tags or fusion partners.
UniProt Q8N884, whole entry, looked up: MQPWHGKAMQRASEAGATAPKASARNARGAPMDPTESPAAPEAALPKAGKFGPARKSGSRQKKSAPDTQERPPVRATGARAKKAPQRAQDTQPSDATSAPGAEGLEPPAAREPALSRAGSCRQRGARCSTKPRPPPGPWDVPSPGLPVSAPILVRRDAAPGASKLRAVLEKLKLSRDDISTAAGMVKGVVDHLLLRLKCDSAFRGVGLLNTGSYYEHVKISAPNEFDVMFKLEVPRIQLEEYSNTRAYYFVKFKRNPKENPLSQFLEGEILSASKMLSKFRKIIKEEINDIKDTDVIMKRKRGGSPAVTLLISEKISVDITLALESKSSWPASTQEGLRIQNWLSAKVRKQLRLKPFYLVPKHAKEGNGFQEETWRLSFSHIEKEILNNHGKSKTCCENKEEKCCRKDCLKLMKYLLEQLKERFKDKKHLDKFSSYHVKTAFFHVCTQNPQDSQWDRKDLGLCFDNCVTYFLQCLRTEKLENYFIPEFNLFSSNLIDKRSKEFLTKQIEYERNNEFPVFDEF

In general, inhibition refers to the drop in the measured response relative to a control, in per cent.

SMILES strings stand for the structures. “And” between values parts separate entries of the source, which are not always exact repeats. Equal entries are not always repeated. The list shows a part of the results, in another mix than the full data. The source made the active and inactive calls. Rule as the data show it: active = inhibition above about 40%; inactive = the rest.

This assay has as its target Cyclic GMP-AMP synthase (Homo sapiens) (UniProt Q8N884). The experiment in a line: Primary biochemical luminescence assay for human cyclic GMP-AMP synthase inhibitors (AID 1259398).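 Also: 0% = vehicle reaction and 100% = reaction without DNA for no activity.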 The conditions noted are these: recombinant h-cGAS, ATP depletion, Kinase-Glo luminescence; at 12.5 µM; stronger effect = higher value. Background: Kinase-Glo measures the ATP left after a reaction by luminescence.
For the molecule `CCOP1(=S)c2c(C)nn(-c3ccccc3)c2N=C(c2ccccc2)N1C1CC1` (configuration not stated), the inhibition is inactive: -4.43%.
In the case of `CCCCOP(=O)(OCCCC)N(CC)CC` it was inactive: -4.03%; in that of `Cc1ccc(NC(=O)COC(=O)C(C)(O)c2cccc(F)c2)c(C)c1` (configuration not stated), inactive: -5.66%.
As for `COP(=O)(NS(=O)(=O)c1ccc(Cl)cc1)OC`, the inhibition was inactive: -10.9% and inactive: -4.23%.
Consider `O=C(OC1CN2CCC1CC2)C1COc2ccccc2O1` (configuration not stated), for which the inhibition is inactive: -5.83%.
Next, `CCCCOP1(=S)N=C2c3ccccc3CN2c2cc(N(C)C)ccc21` (configuration not stated): inactive: -3.61%; `O=P(Nc1nccs1)(c1ccc(Br)cc1)c1ccc(Br)cc1`: inactive: -11.4%; `CCOP1(=S)c2c(C)nn(-c3ccccc3)c2N=C(c2ccccc2F)N1C` (configuration not stated): inactive: -8.63%.
With `O=P(O)(O)F`, the inhibition was inactive: -1.66% and inactive: -3.74%.
`O=C(NC(Sc1ccncn1)C(Cl)(Cl)Cl)c1ccccc1` (configuration not stated): the inhibition was inactive: -5.01%.
Take `Cc1c2non([O-])c-2c(C)[n+](=O)[n+]1[O-]`: the inhibition is inactive: -4.48%.
Next, `CCN(CC)C1=NP(=O)(c2ccccc2)NC(c2ccccc2)=C1C#N` (configuration not stated): inactive: 1.26%.
`CCOP(OCC)N1CCOCC1`: the inhibition is inactive: -6.36%.
Take `O=P(C=C(Cl)c1ccccc1)(C=C(Cl)c1ccccc1)Nc1nncs1`: the inhibition is inactive: -5.28%.
On to `O=C(O[C@H]1CN2CCC1CC2)C1NCc2ccccc2[C@@H]1c1ccccc1` (some centres not stated), for which the inhibition was inactive: -2.85%.
In the case of `CC(C)(C)NC1=NCC(CI)S1` (configuration not stated), the inhibition was inactive: 11.1%.
In the case of `COc1cc(Br)c([N+](=O)[O-])nc1[N+](=O)[O-]` it was inactive: -2.87%.
`CN(C(=O)Cc1ccc(Cl)c(Cl)c1)[C@H]1CCCC[C@@H]1N1CCCC1`: the inhibition is inactive: 3.79% and inactive: 3.32%.
`COP1(=S)c2c(C)nn(-c3ccccc3)c2N=C(c2ccc(F)cc2)N1C` (configuration not stated): the inhibition is inactive: -9.76%.
On to `CC1CCC(C(C)C)C(OP(=O)(Nc2nccs2)c2ccccc2)C1` (configuration not stated), for which the inhibition is inactive: -5.3%.
For `CC[N+](CC)=C1SC2CS(=O)(=O)C(Br)C2(C)S1` (configuration not stated), the inhibition is inactive: -1.05%.
Next, `O=C(OC1CN2CCC1CC2)c1ccccc1` (configuration not stated): inactive: -2.72%.
`CN(C(=O)Cc1ccc(Cl)c(Cl)c1)[C@@H]1CCCC[C@@H]1N1CCCC1`: the inhibition is inactive: -8.95%.
As for `O=C(c1cccc([N+](=O)[O-])c1)c1ccc([N+](=O)[O-])c([N+](=O)[O-])c1`, the inhibition is inactive: -4.77%.
Next, `CN(C)c1ccc2c(c1)N1Cc3ccccc3C1=NP2(=O)c1ccccc1` (configuration not stated): inactive: -3.32%.
`O=C(NC1CCS(=O)(=O)C1)NP(=S)(Oc1ccccc1)Oc1ccccc1` (configuration not stated): the inhibition is inactive: 1.18%.
For the molecule `Cc1c([N+](=O)[O-])c([N+](=O)[O-])nn1CC(=O)Nc1ccc([N+](=O)[O-])cc1Cl`, the inhibition is inactive: -2.06%.
For the molecule `O=P1(Nc2nncs2)C=C(c2ccccc2)SC(c2ccccc2)=C1`, the inhibition is inactive: 2.07%.
As to `BrCC1CN=C(N2CCOCC2)S1` (configuration not stated), the inhibition is inactive: 1.62%.
Next, `CCC(C)C(=O)N1CCCC(C(=O)OC2CN3CCC2CC3)C1` (configuration not stated): inactive: -9.3%; `O=P(Nc1nccs1)(c1ccccc1)c1ccccc1`: inactive: -5.57%; `O=P1(Nc2nc(-c3ccc(F)cc3)cs2)C=C(c2ccccc2)OC(c2ccccc2)=C1`: inactive: -5.11%.
Regarding `CCOC(=O)NC(Sc1nc2ccccc2o1)C(Cl)(Cl)Cl` (configuration not stated), the inhibition was inactive: -4.37%.
`O=P(Nc1ccccn1)(c1ccc(Br)cc1)c1ccc(Br)cc1`: the inhibition is inactive: -4.54%.
In the case of `O=[N+]([O-])c1ccc(-c2csc(NP3(=O)C=C(c4ccccc4)OC(c4ccccc4)=C3)n2)cc1` it was inactive: -3.04%.
On to `O=C1c2no[n+]([O-])c2C(=O)c2no[n+]([O-])c21`, for which the inhibition was inactive: 1.06%.
For `CCSP(=O)(c1ccccc1)c1ccccc1`, the inhibition is inactive: -5.68%.
As to `CN1CC(=O)NC1=NP(=O)(OCc1ccccc1)OCc1ccccc1`, the inhibition was inactive: -3.21%.
As to `BrC1CSc2nc3ccccc3n2C1c1ccccc1` (configuration not stated), the inhibition was inactive: -9.7%.
`CC1CCC(C(C)C)C(OP(=O)(Nc2ccccn2)c2ccccc2)C1` (configuration not stated): the inhibition is inactive: -5.89% and inactive: -7.77%.
In the case of `Cc1n[n+]2c([nH]c1=O)SCC(Br)C2c1ccccc1` (configuration not stated) it was inactive: 6.7%; in that of `ClCCNC1C2CC3CC(C2)CC1C3` (configuration not stated), inactive: -5.22%.
In the case of `CCOP(=O)(NC(=NC(C)c1ccccc1)NC(C)c1ccccc1)OCC` (configuration not stated), the inhibition is inactive: -2.27%.
Turning to `CN(CCCl)Cc1cc(Cl)c(NC2=NCCN2)c(Cl)c1`, the inhibition is inactive: -3.86%.
`Cc1ccc(NP(=O)(OCC(F)(F)F)OCC(F)(F)F)nc1`: the inhibition is inactive: -1.78%.
In the case of `CN1C(=O)C2C(N=C(N3CCOCC3)N2CCc2ccccc2)N(C)C1=O` (configuration not stated), the inhibition was inactive: 6.23%.
Turning to `COc1cc(-n2cnnn2)ccc1-n1cnnn1`, the inhibition was inactive: -10.6%.
As for `CN(CCCl)Cc1cc2cc(I)ccc2s1`, the inhibition was inactive: 4.85%.
As to `CN(C(=O)Cc1ccc(Cl)c(Cl)c1)[C@@H]1CC[C@]2(CCCO2)C[C@H]1N1CCCC1`, the inhibition is inactive: 10.1%.
As for `Cc1ccnc(NP2(=O)C=C(c3ccccc3)OC(c3ccccc3)=C2)c1`, the inhibition is inactive: 2.22%.
On to `CN(C(=O)Cc1ccccc1)[C@@H]1CC[C@]2(CCCO2)C[C@H]1N1CCCC1`, for which the inhibition was inactive: 0.592%.
In the case of `CCOP1(=S)c2c(C)nn(-c3ccccc3)c2N=C(c2ccc(F)cc2)N1C` (configuration not stated), the inhibition was inactive: -5.16%.
Next, `NC(=O)Nc1ccc([As](=O)(O)O)cc1`: inactive: -2.96%; `CC(C)N(C(=O)C12CC3CC(C1)CC(P(=O)(Cl)Cl)(C3)C2)C(C)C`: inactive: 0.382%.
For the molecule `CN1c2ccccc2N2CC(C)(CI)SC12` (configuration not stated), the inhibition was inactive: -3.83%.
For `O=P(Nc1nccs1)(c1ccccc1)c1nc2ccccc2s1` (configuration not stated), the inhibition is inactive: -5.98%.
Take `CCOP1(=S)c2c(C)nn(CCC#N)c2N=C(c2ccccc2F)N1C` (configuration not stated): the inhibition was inactive: 1.72%.
With `COc1cccc(OP(=NC(=S)N2CCOCC2)(C(C)(C)C)C(C)(C)C)c1`, the inhibition was inactive: -5.17%.
Consider `COP1(=S)N=C2c3ccccc3CN2c2cc(N(C)C)ccc21` (configuration not stated), for which the inhibition is inactive: -3.1%.
With `CC(C)NC(=O)NP(=O)(Oc1ccccc1)Oc1ccccc1`, the inhibition was inactive: -7.05%.
Take `O=C(OC1CN2CCC1CC2)c1cccc2[nH]cnc12` (configuration not stated): the inhibition is inactive: -2.29%.
Next, `Nc1nonc1OCCOc1nonc1N`: inactive: 6.84%; `O=P1(Nc2nc(-c3ccccc3)cs2)C=C(c2ccccc2)OC(c2ccccc2)=C1`: inactive: 0.374%.
In the case of `N#CCOC(=O)C(O)(c1ccccc1)c1ccccc1` it was inactive: 3.71%; in that of `O=P(N=c1nc(-c2ccccc2)n(-c2ccccc2)s1)(N1CCOCC1)N1CCOCC1`, inactive: -8.57%; in that of `CN(C)C1=C(c2c([N+](=O)[O-])cc([N+](=O)[O-])cc2[N+](=O)[O-])CCCC1`, inactive: -23.1%.
Next, `CCCOP(=O)(OCCC)O/C(C)=C/SC#N`: inactive: -3.56%; `O=C1OC2C3CC(CC13)C2SC(CCl)C(F)(F)F` (configuration not stated): inactive: -1.96%.
`COc1ccc2nc(NP(=O)(c3ccccc3)c3ccccc3)sc2c1`: the inhibition was inactive: -3.58%.
As for `COP1(=S)c2c(C)nn(-c3ccccc3)c2N=C(c2ccccc2)N1C1CC1` (configuration not stated), the inhibition is inactive: -4.65%.
As to `N#Cc1ccc(-c2csc(NP3(=O)C=C(c4ccccc4)OC(c4ccccc4)=C3)n2)cc1`, the inhibition was inactive: -4.8%.
For `O=C(CBr)c1ccc([N+](=O)[O-])cc1`, the inhibition was inactive: -1.03%.
